Literature values as cited in patent US20120037840A1, “USE OF MAGNETIC NANOPARTICLES TO REMOVE ENVIRONMENTAL CONTAMINANTS” (priority 2008, published 2012).

Conditions: octanol-water coefficient; cited from earlier work

## c1ccc2ccccc2c1 [Naphthalene, naphthalene]
  Kow: 3235
